Reference: patent publication US20220251158A1, “INTERMEDIATE FILAMENT-DERIVED PEPTIDES AND THEIR USES” (UNIVERSITAT DE LLEIDA, priority 2019, published 2022)

Legend:
Format in all cases: cell-based
[1] = tested on: human PBMC (peripheral blood mononuclear cells); assay: Apoptosis/pyroptosis and cell death in human PBMC (annexin V/PI, Caspase-1, Caspase-3)
Description: FIG. 6—Representative dot plots of apoptosis assay of human PBMC cells after culturing them with different peptides. Annexin V and PI positive cells were analysed after culturing 4×10^5 cells for 1 hour, 24 hours or 48 hours with peptide 72, or DIF-P, or DIF-P3K, or DIF-P8R or without stimulus (n=4).
(§1) FIG. 7—Representative histograms of activated (cleaved) caspase-1 positive cells from human PBMC cultured with different peptides. 4×10^5 PBMC cells were cultured with peptide 72, or DIF-P, or DIF-P3K, or DIF-P8R, or Nigericin (as a positive control) or without stimulus for an hour and activated caspase-1 was measured with 660-YVAD-FMK (n=4). Positive cell percentage is resumed on the right of the figure (*=p<0.05).
as §1, with “8—Representative” for “7—Representative”, “caspase-3” for “caspase-1”, “staurosporine” for “Nigericin”, “FAM-DEVD-FMK” for “660-YVAD-FMK”, “(*=p<0.05, **=p<0.01).” for “(*=p<0.05).”
(§2) For cell death and apoptosis analysis, 400.000 of primary cells or 100.000 of cell line cells were incubated in 96-well plates in 200 μL of complete culture medium for 24 h at 37° C. and 5% CO2 in the absence or presence of 55 μM of different peptides. After 1 hour, 24 hours or 48 hours, apoptosis was measured by CFBlue Annexin V Apoptosis Detection Kit with PI (ANXVKCFB-100T, Immunostep), following kit protocol. For cleaved caspasa-3 intracellular staining, mononuclear cells were permeabilised following the manufacturer's instructions of the FoxP3 Staining Buffer Set (00-5523-00, eBioscience) and the cleaved caspasa-3-Pacific Blue (8788S, Cell Signalling) was used for staining. Cell suspensions were analysed by flow cytometry using FACS CANTO II instrumentation (BD, Biosciences, San Jose, Calif.) and Flowjo (version 8.7) software.
Fluorescent labeled inhibitors of caspases (FLICA) probe assays were performed in order to check intracellular activation of specific caspases and confirm previously obtained flow cytometry results by cleaved caspasa-3 antibody. FLICA staining was achieved following manufacturer's instructions, as described elsewhere (Doitsh, G. et al. Cell death by pyroptosis drives CD4 T-cell depletion in HIV-1 infection. Nature 2014, 505, 509-514), after incubating cells with 55 μM of different Peripherin peptides for 1 hour or 24 hours.
(§3) The cytolytic activity (induction of apoptosis and/or pyroptosis) and production of pro-inflammatory cytokines in cell cultures have been analysed for peptides DIF-P, DIF-P3K and DIF-P8R, using peptide 72 as a negative control, in cultures of human PBMC (peripheral blood mononuclear cells). The induction of apoptosis and/or pyroptosis, and cell death was detected by flow cytometry analysis, determining the expression (presence) of annexin V in the cell membrane, and the staining of the cell nucleus with propidium iodide, respectively (FIG. 6). […] The production of pro-inflammatory cytokines (IL-6, IL-1β, TNF-α, IL-12p40, IL-23, IP-10, IFN-γ) is determined after incubation with the stimulus after 24 or 48 hours (FIG. 9).

[2] = tested on: NOD.RAG-2−/− mouse splenocytes; assay: Proliferation assay (CFSE); conditions: versus control peptide 72, in vitro cultures
Description: FIG. 16—Proliferation assay. No proliferation is observed for NOD.RAG-2−/− mouse splenocytes cultured with DIF-P. Peptide 72 is used as a negative control.
HL-60, Jurkat and NALM-6 cells were grown and maintained in complete culture medium in a humidified 5% CO2, atmosphere at 37° C. […] Human splenocytes from buffy coats were collected by density gradient using Histopaque 1077 (Histopaque®-1077, 10771 sigma) as described elsewhere (Johnston, L., Harding, S. A. & La Flamme, A. C. Comparing methods for ex vivo characterization of human monocyte phenotypes and in vitro responses. Immunobiology 2015, 220, 1305-1310). Cells from bone marrow were obtained disrupting femur and tibia as explained elsewhere too (Liu, X. & Quan, N. Immune Cell Isolation from Mouse Femur Bone Marrow. Bio-protocol 5, 2015). Monocytes and neutrophils from bone marrow were purified using the Stemcell kits (19861 and 19762 subsequently) and the kit protocol was followed. Cells were incubated in 96-well tissue culture plates (4×10^5/well for primary cells and 1×10^5 for cells lines) at 37° C. in 5% CO2 in complete culture medium using 55 μM of different Peripherin peptides. For proliferation assays, cells were labelled with CFSE (C34554, life technologies). After 1 hour, 24 hours or 48 hours, cells were analysed by flow cytometry and culture supernatants stored at −80° C. until use. […]

[3] = tested on: mouse splenocytes; assay: Cell death (annexin V expression) of mouse splenocytes cultured with peptide fragments; conditions: splenocytes from NOD, NOD.RAG2−/− and C57Bl/6, 24 hours
Description: HL-60, Jurkat and NALM-6 cells were grown and maintained in complete culture medium in a humidified 5% CO2, atmosphere at 37° C. […] Human splenocytes from buffy coats were collected by density gradient using Histopaque 1077 (Histopaque®-1077, 10771 sigma) as described elsewhere (Johnston, L., Harding, S. A. & La Flamme, A. C. Comparing methods for ex vivo characterization of human monocyte phenotypes and in vitro responses. Immunobiology 2015, 220, 1305-1310). Cells from bone marrow were obtained disrupting femur and tibia as explained elsewhere too (Liu, X. & Quan, N. Immune Cell Isolation from Mouse Femur Bone Marrow. Bio-protocol 5, 2015). […] After 1 hour, 24 hours or 48 hours, cells were analysed by flow cytometry and culture supernatants stored at −80° C. until use.
as §2, with “For cleaved caspasa-3 intracellular staining, mononuclear cells were permeabilised following the manufacturer's instructions of the FoxP3 Staining Buffer Set (00-5523-00, eBioscience) and the cleaved caspasa-3-Pacific Blue (8788S, Cell Signalling) was used for staining.” left out

[4] = tested on: human PBMC (peripheral blood mononuclear cells); assay: Pro-inflammatory cytokine production by human PBMC
Description: FIG. 9—Concentrations of different cytokines produced by human PBMC cells cultured with peptides. 4×10^5 cells were incubated per well with peptide 72, or DIF-P, or DIF-P3K, or DIF-P8R, or Staurosporine, or Nigericine or without stimulus for 24 hours or 48 hours before collecting the supernatant. In the case of Staurosporine and Nigericine the production of cytokines was only analysed after 24 hours (*=p<0.05).
(§4) Culture supernatants from mice proliferation assays were collected and IL-2, IL-4, IL-6, IFN-γ, IL-10, TNF-α and IL-17 cytokine amounts analysed by flow cytometry using CBA kit (560485, BD). For human cell cultures, the Legendplex Kit was used (BioLegend, 740502), which studied cytokines IL-12p70, TNF-α, IL-6, IL-4, IL-10, IL-1β, arginase, IL-1st, IL-12p40, IL-23, IFN-γ and IP-10.
as §3

[5] = tested on: NOD.RAG-2−/− mouse splenocytes; assay: Cytokine release by NOD.RAG-2−/− mouse splenocytes; conditions: 24 h and 48 h
Description: FIG. 1—Cytokine concentration from mouse splenocytes cultured with peptides. Results of the analysis of the supernatants of cells incubated for 24 h and 48 h with peptides 72 and DIF-P (n=4); (A) splenocytes from NOD.RAG-2−/− mice; (B) splenocytes from NOD mice.
FIG. 10—Concentrations of different cytokines produced by NOD.RAG2−/− splenocytes cultured with peptides. 4×10^5 cells were incubated per well with peptide 72, or DIF-P, or DIF-P3K, or DIF-P8R, or without stimulus for 24 hours or 48 hours before collecting the supernatant (*=p<0.05, **=p<0.01).
HL-60, Jurkat and NALM-6 cells were grown and maintained in complete culture medium in a humidified 5% CO2, atmosphere at 37° C. […] Human splenocytes from buffy coats were collected by density gradient using Histopaque 1077 (Histopaque®-1077, 10771 sigma) as described elsewhere (Johnston, L., Harding, S. A. & La Flamme, A. C. Comparing methods for ex vivo characterization of human monocyte phenotypes and in vitro responses. Immunobiology 2015, 220, 1305-1310). Cells from bone marrow were obtained disrupting femur and tibia as explained elsewhere too (Liu, X. & Quan, N. Immune Cell Isolation from Mouse Femur Bone Marrow. Bio-protocol 5, 2015). Monocytes and neutrophils from bone marrow were purified using the Stemcell kits (19861 and 19762 subsequently) and the kit protocol was followed. Cells were incubated in 96-well tissue culture plates (4×10^5/well for primary cells and 1×10^5 for cells lines) at 37° C. in 5% CO2 in complete culture medium using 55 μM of different Peripherin peptides. For proliferation assays, cells were labelled with CFSE (C34554, life technologies). After 1 hour, 24 hours or 48 hours, cells were analysed by flow cytometry and culture supernatants stored at −80° C. until use.
as §4

CC[C@H](C)[C@H](NC(=O)[C@H](CCC(=O)O)NC(=O)[C@@H](NC(=O)[C@H](CC(=O)O)NC(=O)[C@H](CC(C)C)NC(=O)[C@H](C)NC(=O)[C@H](CCSC)NC(=O)[C@H](CCCCN)NC(=O)[C@@H](NC(=O)[C@H](CC(N)=O)NC(=O)[C@H](CC(C)C)NC(=O)[C@@H](N)CC(C)C)C(C)C)[C@@H](C)CC)C(=O)N[C@@H](C)C(=O)N[C@H](C(=O)N[C@@H](Cc1ccc(O)cc1)C(=O)N[C@@H](CCCNC(=N)N)C(=O)N[C@@H](CCCCN)C(=O)N[C@@H](CC(C)C)C(=O)N[C@@H](CC(C)C)C(=O)N[C@@H](CCC(=O)O)C(=O)O)[C@@H](C)O [DIF-P]
induction of apoptosis and/or pyroptosis ([1]; 55 μM): induce apoptosis and/or pyroptosis | cell death by apoptosis (comparison between peptides) ([1]; Caspase-3 after 1 hour): less cell death by apoptosis compared to peptides DIF-P3K or DIF-P8R | leukocyte proliferation [2]: does not stimulate leukocyte proliferation | cell death (FIG. 2) [3]: cell death | secretion of pro-inflammatory cytokines ([4]; 24 or 48 hours): induce secretion of pro-inflammatory cytokines | production of pro-inflammatory cytokines (comparison between peptides) ([4]; leukocytes that remain alive at the end of the culture): significant production of pro-inflammatory cytokines | release of TNF-α ([5]; NOD.RAG-2−/− splenocytes): more efficient at inducing release of TNF-α | production of pro-inflammatory cytokines (FIG. 1) ([5]; mouse splenocytes (NOD.RAG-2−/− and NOD)): ability to induce the production of pro-inflammatory cytokines
